The values below come from BindingDB's records for PubMed 17827 (1977).

The structures appear in SMILES notation.

This test concerns the target T1, Alpha-1A adrenergic receptor (Rattus norvegicus, UniProt P43140).
T1 sequence (P43140 whole entry): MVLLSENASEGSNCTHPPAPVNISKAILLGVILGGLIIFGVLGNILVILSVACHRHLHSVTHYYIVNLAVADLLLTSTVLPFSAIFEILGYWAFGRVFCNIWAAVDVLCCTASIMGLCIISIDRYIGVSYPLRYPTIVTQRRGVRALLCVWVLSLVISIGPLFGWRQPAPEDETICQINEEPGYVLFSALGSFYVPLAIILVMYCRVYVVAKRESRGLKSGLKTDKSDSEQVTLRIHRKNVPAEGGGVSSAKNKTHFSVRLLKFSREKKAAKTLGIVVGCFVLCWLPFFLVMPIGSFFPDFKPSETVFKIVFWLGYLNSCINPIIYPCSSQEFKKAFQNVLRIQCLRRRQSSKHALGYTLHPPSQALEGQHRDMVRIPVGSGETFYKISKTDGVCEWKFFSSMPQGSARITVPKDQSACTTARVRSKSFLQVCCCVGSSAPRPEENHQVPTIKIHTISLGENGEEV

The term Ki denotes the equilibrium dissociation constant of an inhibitor or competing ligand from its target. Read a high Ki as weaker binding. Consider `c1ccc2c(CC3=NCCN3)cccc2c1` [Naphazoline], for which the Ki is 110 nM.
